{
  "source": "patent US12612442B2",
  "about": "“G12-specific designer receptor exclusively activated by designer drugs” (CELL NETWORKS GMBH, priority 2019, dated 2026)",
  "biological_target": "T1, AGTR1 (Homo sapiens, UniProt P30556)",
  "T1 construct": "An open reading frame of each full-length GPCR was cloned into pCAGGS expression plasmid; expressed in transfected cells; host or cells: ΔGq/ΔG12 HEK293",
  "assay": "Chimeric G-protein-based TGFα shedding assay, ligand bias",
  "format": "cell-based",
  "settings": "ΔGq/ΔG12 cells",
  "experimental": "The TGFα shedding assay was performed as described previously (Inoue et al., 2012) with minor modifications. Plasmid transfection was performed in a 6-well plate with a mixture of 500 ng AP-TGFα-encoding plasmid, 200 ng GPCR-encoding plasmid with or without 100 ng Gα-encoding plasmid (per well, hereafter). After 1-day culture, the transfected cells were harvested by trypsinization, pelleted by centrifugation at 190 g for 5 min and washed once with Hank's Balanced Salt Solution (HBSS) containing 5 mM HEPES (pH 7.4). After centrifugation, the cells were resuspended in 6 ml of the HEPES-containing HBSS. […] The cell suspension was seeded in a 96-well culture plate (cell plate) at a volume of 90 μl (per well hereafter) and incubated for 30 min in a 5% CO2 incubator at 37° C. […] Absorbance at 405 nm (Ab405) of the plates was measured, using a microplate reader (SpectraMax 340 PC384, Molecular Devices), before and after 1-h or 2-h incubation at room temperature. Ligand-induced AP-TGFα release was calculated as described previously. […]\nThe inventors used a factor known as the relative intrinsic activity (RAi) (Ehlert et al., 1999) to calculate scores for G-protein coupling. […] The resulting dimensionless, relative Emax/EC50 (defined as RAi) parameter was then log (base 10) transformed to give Log RAi values used to quantify coupling. […]",
  "note": "“Also recorded” adds a separate entry of the source.",
  "data": [
    {"substance": "[Sar^1, Ile^4,6]-Angiotensin II [SII]", "values": [
      {"measurement": "activation of Gαs", "setting": "C-terminal Gαs chimera", "value": "minimum"},
      {"measurement": "ligand bias among G-proteins (LogRAi plots)", "setting": "compared with reference ligand Ang II", "value": "biased toward G12 over Gq; also recorded: more biased towards G12 than Gq"}
    ]}
  ]
}
